Earlier results in patent US10000498B2, “Selective proton coupled folate transporter and folate receptor, and GARFTase inhibitor compounds and methods of using the same” (Duquesne University of the Holy Spirit, priority 2008, dated 2018).

By UniProt entry, the sequences of proteins in these tests, tags left out. Residues count along the entry.
UniProt Q64737, 2-1010 limits assumed: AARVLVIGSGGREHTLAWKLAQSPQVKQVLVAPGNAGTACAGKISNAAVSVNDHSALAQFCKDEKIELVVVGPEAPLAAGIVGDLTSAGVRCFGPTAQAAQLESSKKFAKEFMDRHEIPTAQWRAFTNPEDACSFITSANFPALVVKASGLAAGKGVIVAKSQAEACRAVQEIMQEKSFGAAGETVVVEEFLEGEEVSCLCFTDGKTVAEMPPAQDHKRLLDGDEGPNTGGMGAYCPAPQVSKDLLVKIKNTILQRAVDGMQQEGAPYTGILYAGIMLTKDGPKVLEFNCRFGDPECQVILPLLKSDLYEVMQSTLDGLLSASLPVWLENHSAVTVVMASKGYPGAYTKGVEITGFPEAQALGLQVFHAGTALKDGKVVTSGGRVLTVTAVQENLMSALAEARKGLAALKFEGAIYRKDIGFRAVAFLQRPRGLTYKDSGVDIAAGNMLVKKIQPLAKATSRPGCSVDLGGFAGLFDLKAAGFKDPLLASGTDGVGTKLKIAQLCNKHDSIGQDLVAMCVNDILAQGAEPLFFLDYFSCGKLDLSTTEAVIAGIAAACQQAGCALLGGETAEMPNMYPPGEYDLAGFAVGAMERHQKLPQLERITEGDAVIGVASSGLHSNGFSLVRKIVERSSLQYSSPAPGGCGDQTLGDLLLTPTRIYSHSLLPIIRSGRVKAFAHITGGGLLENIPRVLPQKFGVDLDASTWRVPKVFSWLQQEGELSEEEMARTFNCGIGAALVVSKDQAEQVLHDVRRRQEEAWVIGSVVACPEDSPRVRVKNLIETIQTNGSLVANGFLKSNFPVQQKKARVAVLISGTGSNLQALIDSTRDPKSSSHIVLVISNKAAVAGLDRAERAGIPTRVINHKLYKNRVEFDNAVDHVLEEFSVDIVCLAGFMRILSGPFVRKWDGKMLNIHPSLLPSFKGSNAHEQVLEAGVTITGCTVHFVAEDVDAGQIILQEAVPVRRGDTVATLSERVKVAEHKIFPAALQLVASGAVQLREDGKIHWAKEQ

Target: purified recombinant mouse GARFTase (Mus musculus, UniProt Q64737)
Details: Deng et al., 2008; cited from earlier work

Nc1nc2[nH]c(CCCc3ccc(C(=O)NC(CCC(=O)O)C(=O)O)cc3)cc2c(=O)[nH]1 (stereo not shown)
GARFTase inhibition previously reported: potently inhibit GARFTase
